Measurements taken from patent USRE47404E1, “Viral hepatitis treatment” (priority 2006, dated 2019).

Legend:
JWT cells = test: Cytotoxicity, neutral red dye uptake, JWT; format: cell-based
Excerpt: (§1) Selectivity index=CC50 divided by EC50.

[1] = system: RP7 cells (Huh-7 derived); test: Cytotoxicity, neutral red dye uptake, RP7; format: cell-based; conditions: interferon α-2b in IU/ml
Procedure: as §1
The parental replicon-containing cell line was established by electroporation of RNA transcribed in vitro off of the Sca-I-linearized Bart 79I plasmid into Huh-7 cells (Elazar et al., 2003). Bart79I encodes for a second-generation high-efficiency bi-cistronic sub-genomic replicon of genotype 1b containing a single adaptive mutation (S1179I) in the NS5A gene, and the neomycinphosphotransferase gene in the first cistron. The electroporated cells were plated along with naïve Huh-7 feeder cells and grown in medium—DMEM (4.5 g/l glucose, L-glutamine and sodium pyruvate—Mediatech 10-013-CV), 10% fetal bovine serum, 1% Penicillin-streptomycin, 1% L-glutamine (final concentration 2 mM), 1×MEM Non-Essential Amino Acids (100×) (Invitrogen)—and 1 mg/ml G418. After 3 weeks, G418-resistant colonies appeared. One of the resulting colonies was isolated, expanded, passaged in 700 μg/ml G418, and termed RP-7.

H/FL-Neo cells = test: Cytotoxicity, neutral red dye uptake, H/FL-Neo; format: cell-based; conditions: interferon α-2b in IU/ml
Excerpt: as §1

[2] = system: HCV replication in AVA5 replicon cell line (subgenomic construct of genotype 1b); conditions: AVA5 cell cultures (Table 2)
Procedure: Antiviral activity of nitazoxanide, tizoxanide, interferon α, ribavirin and 2′-C-methyl cytidine was assessed in five different HCV replicon cell lines: (1) AVA5, a subgenomic construct of genotype 1b (Blight et al., 2000, Science 290:1972-1974); (2) H/FL-Neo, a genotype 1a full length construct (Blight et al., 2003, Journal of Virology 77:3181-3190); (3) JWT, a subgenomic construct of genotype 1b (Pfeiffer and Kirkegaard, 2005, Journal of Virology, 79:2346-2355); (4) 4-3-10, a subgenomic construct of genotype 1b, developed by a protocol that involved serial passage of JWT cells in 100 μM for one month followed by 400 μM ribavirin for two weeks (Pfeiffer and Kirkegaard, 2005, Journal of Virology, 79:2346-2355); and (5) RP7, a subgenomic construct of genotype 1b (Elazar et al., 2003, Journal of Virology 77:6055-6061).
Antiviral activity for each test compound was determined as previously described (Okuse et al., 2005, Antiviral Research 65:23-34). Briefly, replicon cell lines were maintained as sub-confluent cultures on 96-well plates. […] Twenty-four hours after the last dose of compound, antiviral activity was determined by blot hybridization analysis of intracellular HCV RNA, and cytotoxicity was assessed by neutral red dye uptake. EC50, EC90, CC50 and selectivity index were calculated for each compound tested in a replicon cell line. […]

AVA5 cells = test: Cytotoxicity, neutral red dye uptake, AVA5; format: cell-based; conditions: interferon α-2b in IU/ml
Excerpt: as §1

4-3-10 cells = test: Cytotoxicity, neutral red dye uptake, 4-3-10; format: cell-based
Excerpt: as §1

In the case of Interferon α-2b, the CC50 (JWT cells) is reported as >10000 IU/ml, the CC50 [1] is reported as >10000 IU/ml and the CC50 (H/FL-Neo cells) is reported as >10000 IU/ml. For the same substance, the “S.I. = CC50/EC50” value [2] was >5263, the CC50 (AVA5 cells) was >10000 IU/ml and the CC50 (4-3-10 cells) was >10000 IU/ml.
